From patent publication US20070043512A1, “Therapeutic and prophylactic compositions and uses therefor” (priority 2003, published 2007)

System: aP2 gene expression
Test: Real-time PCR, aP2 gene expression in NHBE cells
Assay type: cell-based, human
Conditions: NHBE (HBE) cells, stimuli for 18 h, real-time PCR (FIG. 2)
Experimental: When NHBE cells were 80% confluent and between passage 7 and 8, they were washed in PBS (Gibco) and starved for 24 h in Clonetics bronchial epithelial cell basal medium (BEBM) containing 0.1% w/v BSA. The cells were then exposed to the following stimuli: 10 ng/ml IL-4 (BD), 10 ng/ml IL-13 (BD), 10 ng/ml IL-1β (Peprotech), 20 ng/ml IL-3 (BD), 5 ng/ml IL-6 (BD), 10 ng/ml IL-10 (BD), 28 ng/ml interferon-γ (BD), 10 ng/ml TNFα (Peprotech), 50 ng/ml phorbol myristate acetate (PMA; Sigma) or 100 ng/ml LPS (Sigma).
Total RNA was isolated from cells using the RNeasy Total RNA Isolation Kit (Qiagen, Chatswort, Calif.) or Trizol (Invitrogen, CA) as per the manufacturer's instructions. […]
After an initial denaturation for 10 min at 95° C., the samples were run for 40 cycles at 95° C. […] At the end of each cycle, the fluorescence was measured in a single step in channel F1. […] The temperature was then raised to 95° C. at a rate of 0.1° C./sec and fluorescence was measured continuously (channel F1) to obtain a melting curve for the PCR products. Each gene was normalized to a housekeeping gene GAPDH before fold change was calculated (using crossing point values) to account for variations between different samples. […]
Using the same RNA samples as were used for the microarray experiments, aP2 gene expression was analysed using real-time PCR. […]

B1: IL-3: cytokine stimulus, 20 ng/ml (BD) (protein, UniProt P08700 20-152, looked up)
Interleukin-3: APMTQTTPLKTSWVNCSNMIDEIITHLKQPPLPLLDFNNLNGEDQDILMENNLRRPNLEAFNRAVKSLQNASAIESILKNLLPCLPLATAAPTRHPIHIKDGDWNEFRRKLTFYLKTLENAQAQQTTLSLAIF
Effect on aP2 expression: no effect
